From patent US9255080B2, “Quinazolinedione derivatives as PARP inhibitors” (Janssen Pharmaceutica NV, priority 2004, dated 2016)
Some compounds may have been tested in ways that are not shown here.

Chains of the proteins cited; added tags and fusions are not shown.
UniProt P09874, whole entry: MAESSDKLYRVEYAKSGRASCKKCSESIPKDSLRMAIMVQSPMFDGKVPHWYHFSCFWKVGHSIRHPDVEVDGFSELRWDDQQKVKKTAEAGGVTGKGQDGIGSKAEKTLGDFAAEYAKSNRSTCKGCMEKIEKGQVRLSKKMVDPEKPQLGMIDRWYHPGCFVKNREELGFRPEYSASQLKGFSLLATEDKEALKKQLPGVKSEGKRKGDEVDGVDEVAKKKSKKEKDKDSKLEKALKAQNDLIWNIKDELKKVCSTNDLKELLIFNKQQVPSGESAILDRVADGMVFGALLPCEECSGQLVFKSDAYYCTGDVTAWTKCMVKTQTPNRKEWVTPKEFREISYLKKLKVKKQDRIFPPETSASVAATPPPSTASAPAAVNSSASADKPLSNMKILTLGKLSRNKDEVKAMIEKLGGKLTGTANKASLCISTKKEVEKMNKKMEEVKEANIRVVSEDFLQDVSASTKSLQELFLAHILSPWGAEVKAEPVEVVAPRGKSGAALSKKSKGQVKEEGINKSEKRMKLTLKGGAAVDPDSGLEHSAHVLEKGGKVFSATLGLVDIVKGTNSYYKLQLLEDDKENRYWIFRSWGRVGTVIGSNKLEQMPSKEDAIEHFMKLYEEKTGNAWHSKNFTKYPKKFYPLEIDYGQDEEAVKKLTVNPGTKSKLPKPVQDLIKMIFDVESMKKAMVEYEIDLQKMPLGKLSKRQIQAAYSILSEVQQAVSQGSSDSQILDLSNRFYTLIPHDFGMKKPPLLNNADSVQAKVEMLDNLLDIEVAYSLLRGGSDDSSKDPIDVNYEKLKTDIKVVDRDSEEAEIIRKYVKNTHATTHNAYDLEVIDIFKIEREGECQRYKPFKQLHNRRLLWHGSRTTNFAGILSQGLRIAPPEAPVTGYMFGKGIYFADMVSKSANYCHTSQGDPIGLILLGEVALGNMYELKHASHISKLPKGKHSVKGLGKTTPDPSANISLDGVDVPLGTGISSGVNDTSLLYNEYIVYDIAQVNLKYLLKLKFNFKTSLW
UniProt Q9H2K2, whole entry: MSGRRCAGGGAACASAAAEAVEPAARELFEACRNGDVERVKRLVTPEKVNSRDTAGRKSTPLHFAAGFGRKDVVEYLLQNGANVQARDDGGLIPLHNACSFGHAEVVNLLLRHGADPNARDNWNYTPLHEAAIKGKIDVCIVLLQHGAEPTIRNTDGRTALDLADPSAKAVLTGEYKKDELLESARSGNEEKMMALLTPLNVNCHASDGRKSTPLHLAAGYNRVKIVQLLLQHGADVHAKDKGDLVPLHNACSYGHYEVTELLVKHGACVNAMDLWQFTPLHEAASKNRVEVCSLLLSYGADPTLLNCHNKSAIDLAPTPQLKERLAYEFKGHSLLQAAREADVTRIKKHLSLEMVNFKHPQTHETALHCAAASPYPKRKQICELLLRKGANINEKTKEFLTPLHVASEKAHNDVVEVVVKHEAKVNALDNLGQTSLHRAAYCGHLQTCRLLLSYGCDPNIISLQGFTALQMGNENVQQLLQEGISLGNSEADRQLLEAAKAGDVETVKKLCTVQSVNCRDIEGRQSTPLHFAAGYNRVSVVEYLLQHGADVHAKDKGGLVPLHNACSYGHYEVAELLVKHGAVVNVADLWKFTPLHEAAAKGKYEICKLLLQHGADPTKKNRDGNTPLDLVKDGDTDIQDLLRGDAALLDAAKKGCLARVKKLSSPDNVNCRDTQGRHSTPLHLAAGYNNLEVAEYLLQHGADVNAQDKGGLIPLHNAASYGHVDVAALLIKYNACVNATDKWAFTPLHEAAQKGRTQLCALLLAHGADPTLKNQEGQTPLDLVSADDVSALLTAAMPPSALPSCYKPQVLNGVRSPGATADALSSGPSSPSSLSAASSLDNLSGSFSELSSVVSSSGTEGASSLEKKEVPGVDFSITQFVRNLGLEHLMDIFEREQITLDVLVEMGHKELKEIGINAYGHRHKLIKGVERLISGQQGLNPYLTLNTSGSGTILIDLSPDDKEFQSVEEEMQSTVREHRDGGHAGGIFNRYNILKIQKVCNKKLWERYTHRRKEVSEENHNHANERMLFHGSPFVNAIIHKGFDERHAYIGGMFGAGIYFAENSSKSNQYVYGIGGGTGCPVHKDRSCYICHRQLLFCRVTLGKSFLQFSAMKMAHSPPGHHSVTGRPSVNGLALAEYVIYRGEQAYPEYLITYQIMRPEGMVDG

Columns and labels:
PARP-1 enzyme [1] = biological target: T1, PARP-1 enzyme (Homo sapiens, UniProt P09874); experiment: In vitro filtration assay for PARP-1 inhibitory activity; conditions: [32P]-NAD, histones, nicked DNA
PARP-1 enzyme [2] = biological target: T1, PARP-1 enzyme; experiment: In vitro scintillation proximity assay (SPA) for PARP-1 inhibitory activity; conditions: [3H]-NAD+, biotinylated histones, nicked DNA
TANK-2 enzyme = TANK-2 enzyme (Homo sapiens, UniProt Q9H2K2); experiment: In vitro scintillation proximity assay (SPA) for TANK-2 inhibitory activity; conditions: auto-poly(ADP-ribosyl)ation, [3H]-NAD+; 96-well results if available, otherwise 384-well
Procedure: In Vitro Scintillation Proximity Assay (SPA) for TANK-2 Inhibitory Activity
Compounds of the present invention were tested in an in vitro assay based on SPA technology with Ni Flash plates (96 or 384 well).
In principle, the assay relies upon SPA technology for the detection of auto-poly(ADP-ribosyl)ation of TANK-2 protein using [^3H]-nicotinamide adenine dinucleotide ([^3H]-NAD^+) as ADP-ribosyl donor.
A stock solution of [^3H]-NAD^+/NAD was made by adding 64.6 μl of [^3H]-NAD^+ (0.1 mCi/ml, supplier: Perkin Elmer) and 46.7 μl NAD-stock (10.7 mM, stored at −20° C., supplier Roche) to 1888.7 μl assay buffer (60 mM Tris/HCl, pH 7.4; 0.9 mM DTT; 6 mM MgCl2). The TANK-2 enzyme was produced as described in EP1238063. 60 μl of assay buffer, together with 1 μl of compound in DMSO, 20 μl of [^3H]-NAD^+/NAD and 20 μl of TANK-2 enzyme (final concentration 6 μg/ml) was added per well into a 96-well Ni-coated flash plate (Perkin Elmer). After incubation of the mixture for 120 min. at room temperature, the reaction was terminated by adding 60 μl of stopsolution (42.6 mg NAD in 6 ml H2O). […] Values were expressed as counts per minute (cpm). […] For each sample, the amount of cpm was expressed as a percentage of the mean cpm value of the controls. […] Herein the effects of test compounds are expressed as pIC50 (the negative log value of the IC50-value). […]

With `O=c1[nH]c(=O)n(CCCN2CCC(n3c(=O)[nH]c4cc(Cl)ccc43)CC2)c2ccccc12` the “in vitro filter assay PARP-1 pIC50” value (PARP-1 enzyme [1]) was 5.792, the “in vitro SPA assay PARP-1 pIC50” value (PARP-1 enzyme [2]) was 6.848 and the “in vitro SPA assay TANK-2 pIC50” value (TANK-2 enzyme) was 5.247.
